Literature values, collected in publication PMC11854596.

By UniProt entry, the sequences of proteins in these tests, tags left out. Where a name states a change or a piece, a line headed by the entry shows the natural chain unless it says otherwise.
UniProt P61077: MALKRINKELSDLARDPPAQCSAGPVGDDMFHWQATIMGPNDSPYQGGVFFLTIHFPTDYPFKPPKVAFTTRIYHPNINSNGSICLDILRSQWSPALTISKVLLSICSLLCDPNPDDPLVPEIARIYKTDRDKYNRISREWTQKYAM

Target: UbcH5c (Homo sapiens) (UniProt P61077)

Kd: 300 µM
Substance: ubiquitin (from UniProt P0CG48)
